Drawing on PubChem BioAssay AID1424 (The Scripps Research Institute Molecular Screening Center, 2008), this text covers activation for 20 compounds.

Only a part is listed here, and it is no random draw. Active and inactive are the calls of the source.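 The calls were made as follows: active = activation above its plate's cutoff, the mean activation of test wells on that plate plus 3 SD (cut at about 19% in these data); inactive = the rest.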

The test system of the assay is transient receptor potential cation channel N1 (TRPN1/NompC), Danio rerio. Kind of assay: TRPN1 activation via calcium influx – cell-based, HEK293, calcium fluorescence, zebrafish, primary screen (AID 1424).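 Also: 0% = DMSO alone and 100% = 87 µM carbachol.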 The following applies: HEK293 zebrafish TRPN1-YFP, Fluo-8 calcium fluorescence; at 3 µM; active compounds read high; 100% = response to 87 µM carbachol. In short, it runs like this: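 Material – zebrafish TRPN1-YFP in HEK293 cells · Doses – 3 µM single point · Schedule – dye 1 h 37 °C plus 30 min RT · Signal – Fluo-8 calcium fluorescence, excitation 470-495 nm, emission 515-575 nm · Read-out – % activation versus carbachol response · Control set – carbachol high, DMSO low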
In the case of `O=P(Nc1nc2ccc(Cl)cc2s1)(c1ccccc1)c1ccccc1`, the activation was inactive: 5.35%.

For `O=C(O)c1ccccc1[As](=O)(O)O`, the activation was inactive: -0.11%.

On to `CC(=O)Nc1ccc([As](=O)(O)O)cc1`, for which the activation was inactive: 1.81%.

In the case of `O=C(O)CNc1ccc([As](=O)(O)O)cc1`, the activation is inactive: -0.47%.

For the compound `O=[N+]([O-])c1cccc(NC2=NCC(CBr)S2)c1` (stereo not given), the activation is inactive: 1.85%.

As for `O=[N+]([O-])c1ncn(CCn2ncnc2[N+](=O)[O-])n1`, the activation is inactive: 0%.

As to `CC(C)(C)C(=O)NC(Sc1ccncn1)C(Cl)(Cl)Cl` (stereo not given), the activation was inactive: -0.88%.

In the case of `O=C(Nc1cc([As](=O)(O)O)ccc1O)c1ccccc1`, the activation is inactive: 1.81%.

As for `CC1CCN(C(=O)Oc2c(Cl)cc(Cl)c3cccnc23)CC1`, the activation is inactive: -0.68%.

On to `CC(C)=N/N=C(\N)N[N+](=O)[O-]`, for which the activation was inactive: 1%.

As to `CN(C)C(=O)OCCc1n(C)cc[n+]1C`, the activation was inactive: -0.12%.

As for `CCN(/C(=N/P(=O)(N1CCOCC1)N1CCOCC1)N1CCOCC1)c1ccc(OC)cc1`, the activation was inactive: 0.8%.

`Nc1ccc([As](=O)(O)c2ccc(N)cc2)cc1`: the activation was inactive: -0.27%.

Consider `C[N+]1=C2C=CC=CC=C2SC12C([N+](=O)[O-])=CC([N+](=O)[O-])=C[C-]2[N+](=O)[O-]` (stereo not given), for which the activation is inactive: 3.16%.

Consider `Cc1ccc(NP(=O)(Oc2ccccc2)Oc2ccccc2)nc1`, for which the activation is inactive: 0.22%.

As for `CCc1nc2c(n1)c1c(non1O)c1c2no[n+]1[O-]`, the activation is inactive: 7.02%.

Regarding `O=[N+]([O-])c1cc([N+](=O)[O-])c(CCNc2ccccc2)c([N+](=O)[O-])c1`, the activation was inactive: -1.04%.

`O=[N+]([O-])c1cccc2n[nH]nc12`: the activation was inactive: 1.23%.

Regarding `CC(=O)N1C2C3N(C(C)=O)C1C1N(C(C)=O)C(C(N1C(C)=O)N3C(C)=O)N2C(C)=O`, the activation is inactive: 1.34%.

As to `COc1ccc(C2=NCC(CBr)S2)cc1` (stereo not given), the activation is inactive: 1.75%.
